Amino acid sequences for entries named in this document (tags omitted).
UniProt P11802, whole entry: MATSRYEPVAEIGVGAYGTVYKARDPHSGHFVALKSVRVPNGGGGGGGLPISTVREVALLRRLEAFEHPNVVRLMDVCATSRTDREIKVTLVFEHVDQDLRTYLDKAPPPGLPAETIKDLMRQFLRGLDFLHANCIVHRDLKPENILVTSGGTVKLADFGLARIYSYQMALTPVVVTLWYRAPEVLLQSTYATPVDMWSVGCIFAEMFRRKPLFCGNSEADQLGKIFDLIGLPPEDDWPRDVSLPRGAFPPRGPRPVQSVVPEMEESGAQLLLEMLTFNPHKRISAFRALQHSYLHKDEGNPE
UniProt Q00534, whole entry: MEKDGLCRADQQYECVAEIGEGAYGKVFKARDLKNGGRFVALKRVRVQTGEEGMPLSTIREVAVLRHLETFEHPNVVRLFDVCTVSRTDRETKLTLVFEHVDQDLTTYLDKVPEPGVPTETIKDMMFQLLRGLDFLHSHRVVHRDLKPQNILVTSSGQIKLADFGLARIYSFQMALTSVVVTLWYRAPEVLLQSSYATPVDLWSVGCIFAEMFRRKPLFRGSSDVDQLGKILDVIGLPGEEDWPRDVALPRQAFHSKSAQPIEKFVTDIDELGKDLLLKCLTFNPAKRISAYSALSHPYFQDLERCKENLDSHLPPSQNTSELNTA
UniProt P30281, whole entry partner: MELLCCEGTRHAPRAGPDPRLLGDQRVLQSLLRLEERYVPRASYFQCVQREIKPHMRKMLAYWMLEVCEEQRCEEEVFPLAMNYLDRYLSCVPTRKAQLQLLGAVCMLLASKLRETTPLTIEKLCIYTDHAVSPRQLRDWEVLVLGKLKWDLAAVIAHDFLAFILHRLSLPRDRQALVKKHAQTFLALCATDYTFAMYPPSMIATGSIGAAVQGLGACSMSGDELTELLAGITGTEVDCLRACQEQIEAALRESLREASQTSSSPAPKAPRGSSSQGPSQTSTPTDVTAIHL

In US20250009745A1, “CDK INHIBITOR” (SHANGHAI QILU PHARMACEUTICAL RESEARCH AND DEVELOPMENT …, priority 2021, published 2025):

Legend:
Assay in all cases: CDK enzymology experiment in vitro, capillary mobility shift assay (MSA)
Format in all cases: biochemical
[1] = molecular target: CDK2 (Homo sapiens, UniProt P24941); conditions: read-out: CDK2 (nM) inhibitory IC50
[2] = molecular target: CDK4 (Homo sapiens, UniProt P11802); conditions: read-out: CDK4 (nM) inhibitory IC50
[3] = molecular target: CDK6 (Homo sapiens, UniProt Q00534); conditions: read-out: CDK6 (nM) inhibitory IC50

Compound | IC50 [1] | IC50 [2] | IC50 [3]
C[C@@H]1CN(c2ccc(S(=O)(=O)N3CCC(Nc4ncc(C(F)(F)F)c(C=C5CCCC5)n4)CC3)cc2)C[C@H](C)N1 | 0.5 to 2.5 nM | 2.5 to 10 nM | 10 to 50 nM
C[C@H]1CN(c2ccc(S(=O)(=O)N3CCC(Nc4ncc(C(F)(F)F)c(C=C5CCCC5)n4)CC3)cc2)C[C@H](C)N1 | 0.5 to 2.5 nM | 2.5 to 10 nM | 
COc1cc(S(=O)(=O)N2CCC(Nc3ncc(C(F)(F)F)c(O[C@H]4CCOC4)n3)CC2)ccc1C1CCNCC1 | < 0.5 nM | 0.5 to 2.5 nM | 0.5 to 2.5 nM
C[C@H]1CN(c2ccc(S(=O)(=O)N3CCC(Nc4ncc(C(F)(F)F)c(O[C@@H]5CCOC5)n4)CC3)cc2)C[C@H](C)N1 | 2.5 to 10 nM | 10 to 50 nM | 
